Experimental data taken from patent publication US20080103169A1, “COMPOSITIONS COMPRISING ACID LABILE PROTON PUMP INHIBITING AGENTS, AT LEAST ONE OTHER PHARMACEUTICALLY ACTIVE AGENT AND METHODS OF USING SAME” (priority 2006, published 2008).

Test: PPI half-life (serum concentration profile), n of 1 studies
Assay type: in vivo
Conditions: human, oral
Description: The measure of a PPIs activity can be predicted by looking at AUC above 1 micromole. The elimination rate (Kel) is the only variable that can be changed to increase the AUC for a given PPI. Half-life=0.693/Kel
These are all n of 1 studies all performed on the same subject. (Unless otherwise stated, 1.68 g NaHCO3 was used as buffering agent)

half-life (40 mg, Day 1, 40 mg given alone): 1.1 h
half-life (Day 1, given as OME-IR 80 mg+Lansoprazole IR 80 mg): 1.4 h
Structure (SMILES): COc1ccc2[nH]c([S+]([O-])Cc3ncc(C)c(OC)c3C)nc2c1 (centres unmarked) [omeprazole, 5-methoxy-2-[[(4-methoxy-3,5-dimethyl-2-pyridinyl)methyl]sulfinyl]-1H benzimidazole]
